The values below come from PMC8461973 (ACS Sustainable Chemistry & Engineering, 2021).

The target in this test is T1, YfaU (YfaU-wt) (Escherichia coli, UniProt P76469).
T1 construct: gene rhmA
T1 sequence (P76469 1-267): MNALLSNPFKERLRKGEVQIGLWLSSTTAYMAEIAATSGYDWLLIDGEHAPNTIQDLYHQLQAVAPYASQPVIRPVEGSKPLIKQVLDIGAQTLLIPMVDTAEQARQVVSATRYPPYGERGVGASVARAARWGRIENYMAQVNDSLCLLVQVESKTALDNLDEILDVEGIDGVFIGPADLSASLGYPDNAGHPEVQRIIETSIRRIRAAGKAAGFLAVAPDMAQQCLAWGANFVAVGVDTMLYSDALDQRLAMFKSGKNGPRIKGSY
As to conditions: substrate inhibition; co-substrate pyruvate.

As for `C=O` [formaldehyde], the “Ki,formadehyde” value is listed as 95 ± 14 mM.
